In patent US12226449B2, “Materials and methods for the prevention of rheumatoid arthritis” (The University of Toledo, priority 2018, dated 2025):

Tested on: human PBMCs
Test: ELISPOT assay of IFN-γ and IL-17 secreting cells
Type: cell-based
Details: 14-3-3ζ cultures supplemented with IL-2
Description: Cells were plated with 14-3-3ζ protein in a 96-well plate for 14 days at 37° C. in complete RPMI culture medium. Phytohemagglutinin (PHA) was used as a positive control. 10 μl MTT was added at a concentration of 5 mg/mL, and the plate was further incubated at 37° C. in the dark for 3 hours. Supernatant was then removed, and 100 μL DMSO was added for another hour before reading the absorbance at 570 nm using FLUOstar Omega microplate reader (BMG Labtech). For T cell differentiation, PBMCs were incubated with 1 μg/ml of 14-3-3ζ for 7 days followed by either the cellular staining for FACS analysis or ELISPOT as per manufacture's protocol. For testing the effect of drugs, prednisolone, prednisone, as well as TJU103, were used at 1 μg/ml concentration and cyclophosphamide was used at 0.1 μg/ml concentration.
The protocol was adopted from Immunospot kit from Cellular Technology Limited. In short, PBMCs incubated with 14-3-3ζ for 7 days were plated on the antibody coated ELISPOT plates. About 100,000 cells/well were added and incubated for 2 days at 37° C. followed by the developing protocol. Plates were read with a Quantihub ELISPOT plate reader and manually counted.

## IL-2: cytokine added to promote clonal expansion of T cells
  further increase in number of cells or cytokine positive cells on supplementation of 14-3-3ζ cultures: no further increase
